Here are results for one compound from patent US10738049B2, “N-{3-[3-cyclopropyl-5-(2-fluoro-4-iodophenylamino)-6,8-dimethyl-2,4,7-trioxo-3,4,6,7-tetrahydro-2H-pyrido[4,3-D]pyrimidin-1-YL]-phenyl}-cyclopropanecarboxamide dimethyl sulfoxide solvate as an MEK1/2 inhibitor” (R-PHARM JOINT STOCK COMPANY (R-PHARM, JSC), priority 2016, dated 2020).

This data set can be described thus: Body weight and deaths during treatment in the xenograft study. As to conditions: doses up to and including 3 mg/kg, 21 days.

For `Cc1c(=O)n(C)c(Nc2ccc(I)cc2F)c2c(=O)n(C3CC3)c(=O)n(-c3cccc(NC(=O)C4CC4)c3)c12` [Compound of formula 1, N-{3-[3-cyclopropyl-5-(2-fluoro-4-iodophenylamino)-6,8-dimethyl-2,4,7-trioxo-3,4,6,7-tetrahydro-2H-pyrido[4,3-d]pyrimidin-1-yl]-phenyl}-cyclopropanecarboxamide dimethyl sulfoxide solvate], the “Animal weights versus control group” value is listed as “not significantly different”.
